Measurements as given in article PMC3326565 (2011).

Target: T1, human CD64, soluble monomeric extracellular domain (human, UniProt P12314 16-292)
T1 chain: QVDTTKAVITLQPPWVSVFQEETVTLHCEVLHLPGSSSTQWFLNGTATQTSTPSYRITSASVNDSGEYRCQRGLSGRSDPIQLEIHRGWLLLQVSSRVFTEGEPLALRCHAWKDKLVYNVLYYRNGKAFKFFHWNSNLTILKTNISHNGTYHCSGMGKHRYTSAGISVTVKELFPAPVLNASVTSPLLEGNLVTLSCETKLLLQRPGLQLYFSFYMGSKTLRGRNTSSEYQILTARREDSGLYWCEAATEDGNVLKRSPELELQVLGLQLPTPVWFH
Experiment: SPR

B1: ch4D5 (chimeric anti-HER2 monoclonal antibody, wild-type human IgG1 Fc domain) (antibody)
chain 1: QVQLQQSGPELVKPGASLKLSCTASGFNIKDTYIHWVKQRPEQGLEWIGRIYPTNGYTRYDPKFQDKATITADTSSNTAYLQVSRLTSEDTAVYYCSRWGGDGFYAMDYWGQGASVTVSS
chain 2: DIVMTQSHKFMSTSVGDRVSITCKASQDVNTAVAWYQQKPGHSPKLLIYSASFRYTGVPDRFTGNRSGTDFTFTISSVQAADLAVYYCQQHYTTPPTFGGGTKLEIK
Kd: 0.5 nM

B2: ch4D5-0264 (chimeric anti-HER2 monoclonal antibody that contains the optimized Fc domain MGFc0264) (antibody)
chain 1: QVQLQQSGPELVKPGASLKLSCTASGFNIKDTYIHWVKQRPEQGLEWIGRIYPTNGYTRYDPKFQDKATITADTSSNTAYLQVSRLTSEDTAVYYCSRWGGDGFYAMDYWGQGASVTVSS
chain 2: DIVMTQSHKFMSTSVGDRVSITCKASQDVNTAVAWYQQKPGHSPKLLIYSASFRYTGVPDRFTGSRSGTDFTFTISSVQAEDLAVYYCQQHYTTPPTFGGGTKVEIK
Kd: 1.2 nM
